The source of these data is patent US9125915B2, “Antitumor agent” (Mitsubishi Tanabe Pharma Corporation, priority 2007, dated 2015).

Amino acid sequences for entries named in this document (tags omitted).
UniProt P25440, whole entry: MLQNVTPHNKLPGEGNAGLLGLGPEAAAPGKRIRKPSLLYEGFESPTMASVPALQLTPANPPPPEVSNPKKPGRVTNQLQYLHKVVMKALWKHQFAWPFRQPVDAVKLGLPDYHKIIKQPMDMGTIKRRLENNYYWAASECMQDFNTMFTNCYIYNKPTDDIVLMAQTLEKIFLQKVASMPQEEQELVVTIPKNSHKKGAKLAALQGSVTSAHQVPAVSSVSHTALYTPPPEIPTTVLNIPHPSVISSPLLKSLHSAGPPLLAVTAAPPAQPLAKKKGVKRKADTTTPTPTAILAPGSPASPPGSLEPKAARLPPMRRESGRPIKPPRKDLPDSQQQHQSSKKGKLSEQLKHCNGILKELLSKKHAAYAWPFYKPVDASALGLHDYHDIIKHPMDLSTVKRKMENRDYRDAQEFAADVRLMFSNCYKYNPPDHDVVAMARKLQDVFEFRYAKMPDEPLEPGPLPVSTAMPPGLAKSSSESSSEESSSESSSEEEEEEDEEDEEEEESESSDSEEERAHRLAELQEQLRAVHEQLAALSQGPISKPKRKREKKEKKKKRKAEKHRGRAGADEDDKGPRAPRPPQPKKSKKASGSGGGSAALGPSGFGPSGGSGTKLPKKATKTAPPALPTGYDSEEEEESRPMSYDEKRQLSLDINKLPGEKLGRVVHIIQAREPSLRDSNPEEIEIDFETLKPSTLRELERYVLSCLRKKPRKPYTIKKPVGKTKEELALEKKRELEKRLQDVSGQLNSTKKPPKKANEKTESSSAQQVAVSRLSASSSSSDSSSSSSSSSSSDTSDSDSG

The target in the test is BRD2 (Homo sapiens (Human), UniProt P25440). The test can be described thus: Binding inhibitory test of acetylated histone H4 and BRD2 (TR-FRET). The following applies: CHO cell lysate with Flag-BRD2, biotin-labeled acetylated histone H4 peptide. As to the method: An expression vector containing cDNA of BRD2, 3 and 4 added with Flag-tag was transfected to CHO cell, and a cell lysate was prepared 24 hr later. Binding of acetylated histone H4 and BRD was confirmed by a Time Resolved Fluorescence Resonance Energy Transfer (TR-FRET) method. To a 384-well white plate (manufactured by Coaster) were added 50 nmol/L biotin-labeled acetylated histone H4 peptide (manufactured by Upstate) and a serially diluted test compound.
In general terms: In TR-FRET formats the signal depends on donor and acceptor labels being close together.

SMILES strings stand for the structures.

In general, IC50 refers to the concentration needed to halve the response being measured. Low readings indicate greater potency in that assay, high ones weaker potency in that assay. In turn, `Cc1sc2c(c1C)C(c1ccc(Cl)cc1)=N[C@@H](CC(=O)Nc1ccc(O)cc1)c1nnc(C)n1-2` [Compound 1, (S)-2-[4-(4-chlorophenyl)-2,3,9-trimethyl-6H-thieno[3,2-f][1,2,4]triazolo[4,3-a][1,4]diazepin-6-yl]-N-(4-hydroxyphenyl)acetamide] came in with an IC50 of 0.0555 µM.
